In the test the target is IDO1 (Homo sapiens, UniProt P14902). As to the kind of experiment: IDO1 Cellular Assay in HeLa Cells Stimulated with IFNγ. The test is classed as cell-based. The following applies: HeLa cells stimulated with IFNγ 100 ng/mL, about 48 hours.

Amino acid sequences for entries named in this document (tags omitted).
UniProt P14902, whole entry: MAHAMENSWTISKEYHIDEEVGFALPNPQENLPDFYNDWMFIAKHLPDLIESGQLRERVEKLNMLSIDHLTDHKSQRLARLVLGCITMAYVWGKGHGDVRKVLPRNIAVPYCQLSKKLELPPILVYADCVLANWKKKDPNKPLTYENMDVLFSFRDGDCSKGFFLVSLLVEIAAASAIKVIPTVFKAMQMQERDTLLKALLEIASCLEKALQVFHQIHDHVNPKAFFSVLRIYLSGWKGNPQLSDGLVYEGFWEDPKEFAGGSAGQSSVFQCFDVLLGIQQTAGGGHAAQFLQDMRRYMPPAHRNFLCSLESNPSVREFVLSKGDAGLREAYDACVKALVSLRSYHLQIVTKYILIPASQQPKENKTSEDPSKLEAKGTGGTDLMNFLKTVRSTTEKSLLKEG

The structures appear in SMILES notation.

Results on 1 molecule are retold here after patent US12576087B2, “Aryloxypiperidine pyrazole compounds as indoleamine 2,3-dioxygenase inhibitors” (Merck Sharp & Dohme LLC, priority 2018, dated 2026).

`Cc1ccccc1SC1CCN(C(=O)Cn2nc(C(=O)N3CC[C@H](O)[C@H](F)C3)c3c2C[C@H]2C[C@@H]32)CC1` [Example 178, 2-((3bR,4aR)-3-((3R,4S)-3-fluoro-4-hydroxypiperidine-1-carbonyl)-3b,4,4a,5-tetrahydro-1H-cyclopropa[3,4]cyclopenta[1,2-c]pyrazol-1-yl)-1-(4-(o-tolylthio)piperidin-1-yl)ethanone] yielded an EC50 of 12.5 nM.

What is called EC50 is the concentration that produces a half-maximal response. Low values mean higher potency in that assay, high ones lower potency in that assay.
